The target of the experiment is Sterol O-acyltransferase 1 (Oryctolagus cuniculus). The experiment can be described thus: In vitro inhibition of rabbit intestinal acyl coenzyme A:cholesterol acyltransferase using [1-14C]oleolyl-CoA.

With `COc1ccc(C(=O)NC(C)(C)CNC(=O)Nc2c(C(C)C)cccc2C(C)C)cc1`, the IC50 – broadly, the concentration that inhibits the measured activity by half – was 2.5 µM.

Source of the values: ChEMBL document CHEMBL1127542, “Inhibitors of acyl-CoA:cholesterol O-acyl transferase (ACAT) as hypocholesterolemic agents. 8. Incorporation of amide or amine functionalities into a series of disubstituted ureas and carbamates. Effects on ACAT inhibition in vitro and efficacy in vivo” (J Med Chem, 1994).
